The values that follow are results of earlier work, collected in patent US20180280372A1, “COMPOSITIONS AND METHODS FOR INHIBITING AUTOPHAGY AND CONTRACEPTION” (Washington University, priority 2016, published 2018).

Among the targets are dopamine D2 receptor (Homo sapiens, UniProt P14416); HDAC1 (Homo sapiens, UniProt Q13547); mTOR (Homo sapiens, UniProt P42345).
What all share (settings): cited from earlier work

Regarding Trifluoperazine 2HCl, the IC50 (commonly the concentration at which inhibition is half-maximal) on dopamine D2 receptor is 1.1 nM.

With CI994, the IC50 at HDAC1 was 570 nM.

Turning to GDC-0349, on mTOR, the Ki – broadly, the equilibrium dissociation constant of an inhibitor or competing ligand from its target – is 3.8 nM. The “inhibitory effect against PI3Kα and other 266 kinases” value on mTOR (mTOR vs PI3Kα and other 266 kinases) is reported as 790 fold.
